The species named for experiment [1] is Homo sapiens. Kind of experiment: Selectivity ratio of IC50 for inhibition of Flt4 (unknown origin) to IC50 for inhibition of c-MET (unknown origin).
The species named for experiment [2] is Homo sapiens. Kind of experiment: Selectivity ratio of IC50 for inhibition of VEGFR2 (unknown origin) to IC50 for inhibition of c-MET (unknown origin).

`COc1cc2nccc(Oc3ccc(NC(=O)C(OC(=O)c4ccc(F)cc4)C(C)(C)C)cc3F)c2cc1OC` (racemic): the Ratio IC50 was found to be 222 in the experiment filed under Homo sapiens [1] and 121 in the experiment listed under Homo sapiens [2].

The values are drawn from ChEMBL document CHEMBL4680235, “Structure-based discovery of novel 4-(2-fluorophenoxy)quinoline derivatives as c-Met inhibitors using isocyanide-involved multicomponent reactions” (Eur J Med Chem, 2020).
